Measured values published in patent US20170188618A1, “STABLE EMULSIONS FROM DIPEPTIDE DERIVATIVES” (UNIVERSITY OF STRATHCLYDE, priority 2014, published 2017).

Experiments:
[1] = Emulsion formation by aromatic peptide amphiphiles (fluorescence microscopy, FITC label); type: physicochemical
Procedure: (§1) (the volume ratio of buffer solution to chloroform is altered from 1:9, 3:7, 5:5, 7:3, to 9:1, total volume was always 1 mL), after hand-shaking for 5 seconds emulsions form in vials. For SEM, IR, stability, average particle size, critical emulsion concentration and demulsification measurements, the volume ratio of buffer solution to chloroform was fixed at 7:3. The concentration of all aromatic peptide amphiphiles studied (Fmoc-YA, Fmoc-YS, Pyr-YL, Fmoc-FF and Fmoc-FFF) was 10 mM, except for in the determination of the critical emulsion concentration (0.1-10 mM) and demulsification measurements (2 mM).

[2] = target: T1, thermolysin (Bacillus thermoproteolyticus, UniProt P00800); test: Enzymatic demulsification of emulsions by thermolysin; type: biochemical; conditions: after 10 minutes, at 50% conversion
T1 sequence (P00800 233-548): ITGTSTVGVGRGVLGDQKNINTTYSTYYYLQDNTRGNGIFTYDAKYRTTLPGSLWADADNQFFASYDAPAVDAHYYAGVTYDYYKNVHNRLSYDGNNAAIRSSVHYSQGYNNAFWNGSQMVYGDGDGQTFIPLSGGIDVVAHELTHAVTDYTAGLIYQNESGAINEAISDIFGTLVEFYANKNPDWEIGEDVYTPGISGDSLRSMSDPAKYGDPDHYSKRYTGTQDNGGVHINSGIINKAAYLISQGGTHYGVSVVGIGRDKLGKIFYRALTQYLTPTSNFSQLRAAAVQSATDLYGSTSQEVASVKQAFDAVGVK
Procedure: Scale bar is 50 μm. (b) Histogram of the size distribution of adding 1 mg·mL^−1 thermolysin phosphate buffer solution into chloroform-in-water emulsion droplets stabilized with 2 mmol·L^−1 Fmoc-YL buffer solution after 0, 20, 40, 60 seconds. (c) Optical photographs of vials in which emulsions formed (left) and demulsified (right) in addition of thermolysin. Emulsions were stabilized with 2 mmol·L^−1 Fmoc-YL buffer solution in absence (left) and presence (right) of 1 mg·mL^−1 thermolysin after 10 min.
Another vital advantage of using peptide self-assembly to stabilize the emulsion systems is the ability to digest the stabilizing film using a suitable enzyme. Proteases, the enzymes that cleave peptide bonds cause disassembly of amphiphiles.

[3] = Partitioning of peptides between water, chloroform and the water/chloroform interface (UV-Vis); type: physicochemical; conditions: water/chloroform biphasic system
Procedure: Initial interest in studying aromatic peptide amphiphiles at the organic/aqueous interface started from the observation that aromatic peptide Fmoc-YL forms a gel in both phosphate buffer solution (10 mM) and chloroform (25 mM). […] By adding different volumes of chloroform to 10 mM Fmoc-YL buffer solution at 80° C. […] In the images shown, the milky layers are emulsions and the transparent layers above and below are the aqueous and chloroform phase, respectively. UV-Vis was used to determine the amount of Fmoc-YL that remained in water phase and transferred to chloroform. Fluorescein isothiocyanate (FITC) was used to label the aqueous phase in the emulsion layers for imaging by fluorescence microscopy.
(§2) The absorption of Fmoc-YL at the chloroform/water interfaces could be quantified by UV-Vis spectra by measuring the concentration in each phase and with the remainder absorbed at the interface. Based on UV analysis, in a 50:50 water/chloroform system, the amount of Fmoc-YL absorbed at the chloroform/water interface could be calculated as 1.9 mmol·m^−2.
(§3) The structures of Fmoc-YL microcapsules were determined by Hitachi S800 field emission scanning electron microscope (SEM) at an accelerating voltage of 10 keV. The transfer of Fmoc-YL, YA and YS were analyzed by UV-Vis spectroscopy (JAS.C.O V-660 spectrophotometer). The formation of Fmoc-YL gels and labeling of ThT were carried out by Fluorescence spectroscopy (JAS.C.O FP-6500 spectrofluorometer). High resolution mass spectra (HRMS) were recorded on a Thermo Electron Exactive. 400.1 (1H) NMR spectra were recorded on Brucker Avance 400 spectrometer at room temperature using perdeuterated solvents as internal standards. The emulsion droplets were characterized by fluorescence microscopy. The devices were mounted on an inverted microscope (AXIO Observer A1, Zeiss) and images were acquired using a EMCCD LucaR camera (Andor Technologies). Images (using brightfield and fluorescence microscopy) were acquired using Zeiss ×20 dry objective and the appropriate filter set for the fluorophore being imaged. Image was analyzed using ImageJ.

[4] = Gel formation in buffer solution and chloroform; type: physicochemical
[5] = Stability of chloroform-in-water emulsions (time, heat, salts) versus SDS
Procedure: The top images show freshly prepared emulsions and the bottom images show emulsions incubated for 2 weeks. […] The top images show freshly prepared emulsions and the bottom images show emulsions heated at 60° C. for 3 hours. […] The top images show freshly prepared emulsions and the bottom images show emulsions incubated for 24 hours.
as §1

[6] = Absorption of Fmoc-YL at the chloroform/water interface (UV-Vis); type: physicochemical; conditions: 50:50 water/chloroform system; based on UV analysis
Procedure: as §2, §3

[7] = Enzymatically triggered emulsions: stability in chloroform/water biphasic system; type: physicochemical; conditions: Fmoc-YL formed by alkaline phosphatase in chloroform/water biphasic system
Procedure: When chloroform is added in a 1:1 volume ratio to the 5 mM Fmoc-YpL buffer solution and hand-shaken for 5 seconds, an emulsion is formed. Fmoc-YpL follows a surfactant-like behaviour, visible by the formed foam, where the amphiphile absorbs to the oil/water interface. However, the structure of Fmoc-YpL implies an inability to effectively stabilize the interface and demulsification occurs after one hour (FIG. 4a). […] Enzyme-triggered self-assembly allows temporal control over emulsification, achieved by adding alkaline phosphatase to the Fmoc-YpL biphasic system (FIG. 11a).
Fmoc-YpL was prepared in the same way as stated before but in a 5 mM concentration to avoid formation of hydrogels. After 24 hours from the Fmoc-YpL has been prepared in buffer and the alkaline phosphatase added (to assure full dephosphorylation), 500 μL chloroform were added to 500 μL samples and hand-shaken for 5 seconds to make a 50:50 chloroform-in-water emulsion.

## Fmoc-tyrosine-leucine [Fmoc-YL]
[1]; chloroform / phosphate buffer pH 8, 10 mM peptide
  type of emulsion formed: chloroform-in-water emulsions form
[1]; hexadecane, mineral oil instead of chloroform
  emulsions with other organic media: can also stabilize both hexadecane-in-water and mineral oil-in-water emulsions
[2]
  emulsion state after thermolysin: complete demulsification and phase separation
[3]
  Remain in water (%): 14.01%
  Transfer to chloroform (%): 3.45%
  Transfer to interface (%): 82.53%
[4]; Fmoc-YL 10 mM
  gel formation in phosphate buffer solution: forms a gel
[4]; Fmoc-YL 25 mM, Fmoc-YA 30 mM
  gel formation in chloroform: forms a gel
[5]; 10 mM in buffer, chloroform, manual agitation 5 seconds
  long-term stability of emulsions: stable for months
[5]; 100 mM phosphate, chloride and thiocyanate solution, 10 mM
  emulsion state after 24 h in salt solution: not influenced by the salt effect
[5]; chloroform-in-water, 10 mM
  emulsion state after exposure to 60° C. for 3 h: no visible change
  emulsion state after two weeks at room temperature: still stable
[6]
  amount absorbed at the chloroform/water interface: 1.9 mmol·m^−2
[7]
  emulsion stability: stable for months
